From PMC5175178, “Development of an in-vivo active reversible butyrylcholinesterase inhibitor” (Scientific Reports, 2016)

The chains behind the UniProt entries cited, without tags or fusion partners. Residues count along the entry.
UniProt P06276, 29-602: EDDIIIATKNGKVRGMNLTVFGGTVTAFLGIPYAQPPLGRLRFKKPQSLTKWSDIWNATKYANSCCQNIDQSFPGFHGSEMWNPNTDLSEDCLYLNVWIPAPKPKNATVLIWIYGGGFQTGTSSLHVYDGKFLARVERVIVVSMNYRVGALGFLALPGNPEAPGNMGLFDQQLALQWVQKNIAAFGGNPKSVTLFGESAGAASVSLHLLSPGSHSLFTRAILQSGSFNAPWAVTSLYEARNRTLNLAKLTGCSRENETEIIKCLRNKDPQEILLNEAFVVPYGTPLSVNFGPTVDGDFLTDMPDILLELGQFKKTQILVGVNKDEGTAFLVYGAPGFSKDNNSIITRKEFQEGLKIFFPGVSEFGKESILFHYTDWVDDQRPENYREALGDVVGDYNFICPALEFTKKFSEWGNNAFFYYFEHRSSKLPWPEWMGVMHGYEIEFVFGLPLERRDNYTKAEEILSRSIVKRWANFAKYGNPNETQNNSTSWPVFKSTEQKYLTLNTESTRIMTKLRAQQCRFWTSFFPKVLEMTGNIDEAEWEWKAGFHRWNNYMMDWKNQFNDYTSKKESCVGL

Molecular target: T1, huBChE (Homo sapiens, UniProt P06276)
T1 construct: made in house
Test: biochemical
Format: biochemical

Structure (SMILES) | IC50 | fold higher IC50 against huBChE than for compound 2
COCCN(CC1CCCN(C2Cc3ccccc3C2)C1)S(=O)(=O)c1ccc2ccccc2c1 (racemic) [compound 3, (±)-N-((1-(2,3-dihydro-1H-inden-2-yl)piperidin-3-yl)methyl)-N-(2-methoxyethyl)naphthalene-2-sulfonamide] | 53 ± 4 nM | 
COCCN(CC1CCCN(C2Cc3ccccc3C2)C1)S(=O)(=O)c1cccc(N)c1 (racemic) [compound 4, (±)-3-amino-N-((1-(2,3-dihydro-1H-inden-2-yl)piperidin-3-yl)methyl)-N-(2-methoxyethyl)benzenesulfonamide] | 197 ± 8 nM | 
COCCCN(CC1CCCN(Cc2ccccc2)C1)S(=O)(=O)c1ccc2ccccc2c1 (racemic) [compound 5, (±)-N-((1-benzylpiperidin-3-yl)methyl)-N-(3-methoxypropyl)naphthalene-2-sulfonamide] | 14.4 ± 0.8 nM | 3 fold
O=S(=O)(NCC1CCCN(Cc2ccccc2)C1)c1ccc2ccccc2c1 (racemic) [compound 7, (±)-N-((1-benzylpiperidin-3-yl)methyl)naphthalene-2-sulfonamide] | 56.9 ± 9.8 nM | 
CN(CC1CCCN(Cc2ccccc2)C1)S(=O)(=O)c1ccc2ccccc2c1 (racemic) [compound 8, (±)-N-((1-benzylpiperidin-3-yl)methyl)-N-methylnaphthalene-2-sulfonamide] | 25 ± 3.8 nM | 
COCCCN(CC1CCN(Cc2ccccc2)CC1)S(=O)(=O)c1ccc2ccccc2c1 [compound 6, N-((1-benzylpiperidin-4-yl)methyl)-N-(3-methoxypropyl)naphthalene-2-sulfonamide] | 19.3 ± 3.7 nM | 
COCCN(CC1CCN(Cc2ccccc2)CC1)S(=O)(=O)c1ccc2ccccc2c1 [compound 75, N-((1-benzylpiperidin-4-yl)methyl)-N-(2-methoxyethyl)naphthalene-2-sulfonamide] | 39.4 ± 2.8 nM | 
COCCN(CC1CCN(C2Cc3ccccc3C2)CC1)S(=O)(=O)c1ccc2ccccc2c1 [compound 84, N-((1-(2,3-dihydro-1H-inden-2-yl)piperidin-4-yl)methyl)-N-(2-methoxyethyl)naphthalene-2-sulfonamide] | 52.5 ± 2 nM | 
COCCCN(CC1CCN(C2Cc3ccccc3C2)CC1)S(=O)(=O)c1ccc2ccccc2c1 [compound 85, N-((1-(2,3-dihydro-1H-inden-2-yl)piperidin-4-yl)methyl)-N-(3-methoxypropyl)naphthalene-2-sulfonamide] | 71.2 ± 1.9 nM | 
O=S(=O)(NCC1CCN(Cc2ccccc2)CC1)c1ccc2ccccc2c1 [compound 86, N-((1-benzylpiperidin-4-yl)methyl)naphthalene-2-sulfonamide] | 195 ± 17 nM | 
